Test results taken from patent US9334286B2, “Pharmacologically active compounds” (Cancer Research Technology Limited, priority 2012, dated 2016).

Chains of the proteins cited; added tags and fusions are not shown. Lines headed by an entry give the natural chain unless they say otherwise; changes in a name come on top.
UniProt P33981: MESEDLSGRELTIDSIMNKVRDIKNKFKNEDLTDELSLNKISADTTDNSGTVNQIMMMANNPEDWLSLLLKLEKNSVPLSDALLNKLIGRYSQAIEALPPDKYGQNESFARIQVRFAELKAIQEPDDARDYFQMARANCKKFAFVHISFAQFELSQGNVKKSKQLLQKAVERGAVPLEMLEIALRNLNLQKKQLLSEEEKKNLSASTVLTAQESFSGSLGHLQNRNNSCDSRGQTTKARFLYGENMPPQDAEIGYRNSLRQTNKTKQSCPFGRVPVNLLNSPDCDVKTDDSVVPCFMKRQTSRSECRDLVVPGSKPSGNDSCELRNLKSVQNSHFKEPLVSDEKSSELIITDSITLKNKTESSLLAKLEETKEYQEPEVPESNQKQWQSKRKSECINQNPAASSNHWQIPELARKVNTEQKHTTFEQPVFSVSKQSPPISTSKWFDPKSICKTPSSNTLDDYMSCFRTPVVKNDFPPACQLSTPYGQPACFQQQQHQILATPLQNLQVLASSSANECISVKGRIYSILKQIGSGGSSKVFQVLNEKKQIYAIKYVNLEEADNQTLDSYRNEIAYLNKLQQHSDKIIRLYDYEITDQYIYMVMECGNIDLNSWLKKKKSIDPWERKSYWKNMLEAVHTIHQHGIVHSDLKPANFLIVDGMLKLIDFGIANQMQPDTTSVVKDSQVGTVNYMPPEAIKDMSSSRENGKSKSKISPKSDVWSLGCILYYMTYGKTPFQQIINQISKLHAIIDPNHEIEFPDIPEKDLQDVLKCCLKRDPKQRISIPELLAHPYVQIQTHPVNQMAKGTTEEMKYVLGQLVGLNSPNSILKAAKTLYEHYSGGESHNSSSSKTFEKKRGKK

Target: full length MPS1 (Homo sapiens (Human), UniProt P33981)
Experiment: Measurement of inhibition of MPS1 kinase (Caliper EZ reader, fluorescent labelled peptide H236)
Assay type: biochemical
Conditions: MPS1 IC50, full length MPS1 12.5 nM or 3 nM, peptide H236 5 μM, ATP 10 μM, 60 min at room temperature
Experimental: The reaction was carried out for 60 min at room temperature and stopped by the addition of buffer (10 μl) containing 20 mM EDTA, 0.05% (v/v) Brij-35, in 0.1M HEPES-buffered saline (Free acid, Sigma, UK). The plate was read on a Caliper EZ reader II (Caliper Life Sciences).
The reader provides a Software package (‘Reviewer’) which converts the peak heights into % conversion by measuring both product and substrate peak and also allows selection of control well which represent 0% and 100% inhibition respectively. The % inhibition of the compounds is calculated relative to the means of selected control wells. IC50s are determined by testing the compounds at a range of concentrations from 0.25 nM-100 μM. The % inhibitions at each concentration are then fitted to a 4 parameter logistic fit: y=(a+((b−a)/(1+((c/x^d)))) where a=asym min, b=asym max, c=IC50 and d=hill coefficient

Row | IC50 [nM] | SMILES
1 | 21 | CNc1ccc(-c2ccc3cnc(Nc4ccc(-c5cnc(C)n5C)cc4OC)cc3c2)cn1 [Example 114, N-(4-(1,2-dimethyl-1H-imidazol-5-yl)-2-methoxyphenyl)-6-(6-(methylamino)pyridin-3-yl)isoquinolin-3-amine]
2 | 5 | COc1cc(-c2cnc(C)n2CC2CCNCC2)ccc1Nc1cc2cc(-c3cnn(CC(C)(C)O)c3)ccc2cn1 [Example 110, 1-(4-(3-((2-Methoxy-4-(2-methyl-1-(piperidin-4-ylmethyl)-1H-imidazol-5-yl)phenyl)amino)-isoquinolin-6-yl)-1H-pyrazol-1-yl)-2-methylpropan-2-ol]
